Measurements from ChEMBL document CHEMBL1154676, “Synthetic mRNA splicing modulator compounds with in vivo antitumor activity” (J Med Chem, 2009).

Test system: WiDr
Assay: Cytotoxicity against human WiDr cells after 72 hrs by XTT assay
Assay type: functional, cell-based
How it was run: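 Cells grown at 37 °C, 5% CO2; HFF in DMEM with 10% FBS, PrEC in prostate epithelial growth medium. Adherent lines seeded overnight, suspension lines same day; compounds diluted from DMSO stocks into media at various final concentrations, 72 h exposure. XTT reagent added 4 h, absorbance 490 nm (reference 690 nm). Growth as % of vehicle; IC50 from sigmoidal dose-response fit; mean ± SEM, three independent experiments.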

CC(/C=C/[C@@H]1C[C@]2(CO2)CC(C)(C)O1)=C\C[C@H]1CC[C@@H](NC(=O)/C=C\[C@H](C)OC(=O)N2CCN(C3CCCCCC3)CC2)CC1
IC50: 4 µM
